This passage reports IC50 results from ChEMBL document CHEMBL4177521, “Therapeutic Potential of Fatty Acid Amide Hydrolase, Monoacylglycerol Lipase, and N-Acylethanolamine Acid Amidase Inhibitors” (J Med Chem, 2017).

In the experiment the target is T1, N-acylethanolamine-hydrolyzing acid amidase (Homo sapiens, UniProt Q02083).
T1 sequence (Q02083 whole entry): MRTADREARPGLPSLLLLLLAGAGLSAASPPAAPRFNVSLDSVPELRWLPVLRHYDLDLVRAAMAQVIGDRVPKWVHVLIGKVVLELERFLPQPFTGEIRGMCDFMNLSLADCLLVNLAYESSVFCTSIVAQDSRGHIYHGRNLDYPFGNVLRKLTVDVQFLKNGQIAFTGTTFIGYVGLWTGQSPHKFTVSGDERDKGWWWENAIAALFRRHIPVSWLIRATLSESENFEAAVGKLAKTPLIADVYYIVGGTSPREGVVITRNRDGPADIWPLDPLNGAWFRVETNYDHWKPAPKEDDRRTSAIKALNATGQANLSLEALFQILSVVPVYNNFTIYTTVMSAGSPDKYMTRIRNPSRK
The experiment is described as follows: Inhibition of recombinant human NAAA expressed in HEK293 cells preincubated for 10 mins followed by PAMCA substrate addition after 30 mins by fluorescence assay. The class given is cell-based.

With `CC(C)[C@@H]1OC(=O)[C@@H]1NC(=O)OCCCCCc1ccccc1`, the IC50 was 63 nM.

Usually IC50 stands for the midpoint of a concentration-inhibition curve.
